Tests used:
PASK = molecular target: T1, PASK (UniProt #Q96RG2; human recombinant N-terminal GST tagged construct, residues 879-1323) (Homo sapiens, UniProt Q96RG2); test: PASK ATP Radiochemical Assay; format: biochemical; conditions: 33P-ATP, Myelin Basic Protein substrate, 120 min at room temperature, read-out: IC50 Kinase Domain
T1 construct: human recombinant N-terminal GST tagged construct, residues 879-1323; GST (N); host or cells: insect cells
Method: (§1) Biochemical Assay for hPASK Activity
PASK ATP Radiochemical Assay
Test compounds in DMSO are then added and the mixture, followed by delivery of ^33P-ATP (specific activity 0.01 μCi/μl final) to initiate the reaction. […] The entire reaction mixture is washed through onto a P81 Phosphocellulose paper and washed three times for 10 minutes in 75 mM phosphoric acid and once in methanol prior to drying and scintillation counting.

Amino acid sequences for entries named in this document (tags omitted). Residues count along the entry.
UniProt Q96RG2, 879-1323, stated change not applied: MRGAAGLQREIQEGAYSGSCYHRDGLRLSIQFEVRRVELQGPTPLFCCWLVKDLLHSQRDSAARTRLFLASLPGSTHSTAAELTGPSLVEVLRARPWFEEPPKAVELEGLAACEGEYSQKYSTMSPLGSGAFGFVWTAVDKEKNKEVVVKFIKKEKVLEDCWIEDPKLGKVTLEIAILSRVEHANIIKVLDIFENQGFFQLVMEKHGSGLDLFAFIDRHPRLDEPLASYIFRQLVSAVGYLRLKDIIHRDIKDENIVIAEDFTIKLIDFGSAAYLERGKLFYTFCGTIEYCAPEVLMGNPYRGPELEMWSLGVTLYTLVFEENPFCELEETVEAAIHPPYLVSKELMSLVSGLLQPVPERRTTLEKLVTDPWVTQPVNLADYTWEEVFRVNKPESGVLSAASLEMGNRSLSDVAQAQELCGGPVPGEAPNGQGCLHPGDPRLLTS
UniProt Q96RG2, 999-1251 limits assumed: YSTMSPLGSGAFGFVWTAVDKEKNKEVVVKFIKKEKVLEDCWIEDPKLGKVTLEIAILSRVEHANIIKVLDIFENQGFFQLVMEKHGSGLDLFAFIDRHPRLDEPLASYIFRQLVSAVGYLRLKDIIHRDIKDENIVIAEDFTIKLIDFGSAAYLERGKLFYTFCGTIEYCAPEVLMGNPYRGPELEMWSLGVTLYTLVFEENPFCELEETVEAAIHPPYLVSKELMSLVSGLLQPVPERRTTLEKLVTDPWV

PASK (Invitrogen) = molecular target: T2, PASK (Invitrogen) (Homo sapiens, UniProt Q96RG2); test: PAS Kinase FRET Assay; format: biochemical; conditions: PAS kinase TR-FRET assay (665 nm/615 nm), 2 hours at 25° C.; read-out: IC50 Kinase Domain
T2 construct: IC50 Kinase Domain; purchased Invitrogen
Source text: as §1
The aim of the FRET assay is to determine the inhibition potential of test compounds on targeted kinase. This assay platform provides a homogenous screening method for measuring kinase activity by quantitating the amount of phospho-substrate in solution following a kinase reaction.
In the presence of kinase and ATP, the Ulight-peptide is phosphorylated and captured by an anti-phospho-substrate antibody, which brings the Eu chelate donor and Ulight acceptor dyes into close proximity.
Titration of kinase at 1 mM ATP was achieved via the following protocol. […] The contents of the plate were incubated at RT for 1 h. The reaction was stopped by adding 5 μl of stop solution to each test well followed by mixing and incubation at RT for 10 minutes. 5 μl of detection mix (detection antibody diluted in detection buffer) was added; the contents of the plate were mixed and then incubated in the dark for 1 hour at RT. […] The results were graphed to calculate the EC50.
Titration of ATP at the EC50 concentration of kinase to determine ATP Km,app. was performed using the following method. […] The contents of the plate were and incubated at RT for 1 h. The reaction was stopped by adding 5 μl of stop solution to each test well followed by mixing and incubation at RT for 10 minutes. […]

C[C@@H]1CCCN1c1nc2cc(C(=O)O)ccc2nc1-c1ccc(F)cc1 [Example 150, (R)-2-(4-Fluorophenyl)-3-(2-methylpyrrolidin-1-yl)quinoxaline-6-carboxylic acid]
IC50 (PASK): < 10 µM
IC50 (PASK (Invitrogen)): < 10 µM

From patent publication US8912188B2, “Substituted quinoxaline carboxylic acids for the inhibition of PASK” (BioEnergenix, LLC, priority 2011, dated 2014)
